Several values for one entry are separate records, joined by “and”; a condition that tells them apart may be missing. Equal entries are not always repeated.
Experiments:
[1] = CMC of Polysorbate 20 in F58 buffer pH 7.7 with added ALT-801 by surface tensiometry; format: physicochemical
Text: CMC shifts are simply calculated as CMC in the presence of the ALT-801 less the CMC for the surfactant alone in solution.

DIO JAX mice = DIO JAX mice study (blood glucose, IPGTT, body weight, body composition); format: in vivo, mouse
Text: B. In vivo assays using “DIO JAX” mice. Eighty-one (81) 18 week-old male C57BL/6J mice, fed a high fat diet (Research Diets D12492) from the age of 6 weeks, were transferred to Jackson in vivo research laboratory (Sacramento, Calif.). […] Cages were changed every two weeks. […] The animal rooms were set to have 15 air exchanges per hour. Before study initiation, all mice continued on the high fat diet (60% kcal; D12492) and were acclimated for four weeks. On the morning of Study Day −1, baseline body composition was determined for each mouse via NMR analysis. Sixty-three (63) mice were grouped into seven groups (n=9). Remaining ungrouped mice were euthanized. Subcutaneous dosing of compounds was done on alternate days. On the morning of Study Day 0, pre-dose blood glucose measurements were taken via glucometer and the mice were dosed according to Table 7 below, with dose time recorded. Blood glucose measurements were taken at 1, 2, 4, 8, 10, and 24 hours post-dose. After study day 1, pre-dose blood glucose was measured on days 4, 7, 9, 11, 13, 17, 21 and 25. Body weights and clinical observations were recorded every 2 days. Food intake in all groups was measured daily, following dosing. First food intake measurement was on Study Day −1. Group 4 was pair-fed to Group 3 and Group 7 was pair-fed to Group 6. The amount of food for Groups 4 and 7 was dictated by the average amount of food consumed in the previous 24-hour window by Groups 3 and 6, respectively. Food intake for Groups 1, 2, 3, 5 and 6 were provided ad lib and measured daily. On Study Day 27, the mice were fasted for 5 hours and a glucose tolerance test (GTT) was performed. All mice were IP dosed with a bolus of glucose (2 g/kg) and blood glucose was assessed pre-dose and 15, 30, 60, 90, and 120 minutes post-dose. All blood glucose values were entered in the GTT Blood Glucose Log.

[2] = single-dose pharmacokinetics in male C57BL6/J mice (SC and IV); details: for AUC(0-inf) / AUC(0-t) / Cmax / Tmax / half-life / MRT: male, C57BL6/J, mouse, in vivo
Procedure: The in-life phase of the study was conducted at the Jackson Laboratory (Sacramento, Calif.) in sixty-seven C5713L6/J male mice (7-9 weeks of age) (diet-induced obese (DIO) JAX mice). The mice were ear notched for identification and housed in individually and positively ventilated polycarbonate cages with HEPA filtered air at a density of up to 4 mice per cage. […] The animal rooms were set to have a minimum of 15 air exchanges per hour.
Three mice in unclosed Group 1 were bled at time zero only.
For Groups 2 to 5, four mice were bled at 2 time points with the second time point being terminal. At each time point, a minimum of −200 whole blood was collected via retro-orbital bleed or cardiocentesis. The blood samples were collected in K2EDTA anticoagulant and centrifuged. The plasma (a minimum of 100 μL) was transferred to a tube and stored frozen until shipment to the bioanalytical lab for analysis by LC-MS/MS.
A 100 μL aliquot of the plasma was mixed with 10 μL of internal standard (20 μg/mL standard in phosphate buffered saline) and then 300 μL of acetonitrile. The samples were vortexed and centrifuged. The supernatant was transferred to a clean 96-well plate for LC-MS/MS analysis.

plasma proteins of human = assay: plasma protein binding by ultracentrifugation, human plasma; format: in vitro ADME
Text: (§1) Such non-covalent binding to albumin is anticipated to slow down the degradation of peptide in plasma and results in decreased renal clearance. […] Pooled plasma was obtained from at least three Sprague Dawley rats, beagle dogs, and cynomolgus monkeys. Pooled human plasma was obtained from three human males (that reportedly had not taken any medication in the previous 7 days before collection). K2EDTA was used as the anticoagulant. The pH of each pool of plasma was adjusted, if needed, to approximately pH 7.4 with hydrochloric acid or sodium hydroxide. Ultracentrifugation was performed using polycarbonate ultracentrifugation tube placed in a S80 AT2 rotor at 37° C. at 357000×g for 6 hours to achieve separation of PUC (supernatant) from plasma proteins. After centrifugation, the PUC was analyzed by LC MS for the calculation of protein binding. Protein Binding was evaluated as Percent unbound=(Cu/Co)×100 and Percent bound=100-percent unbound where Co is the concentration of test article in plasma prior to ultracentrifugation (ng/mL) and Cu is the concentration of test article in plasma in the ultracentrifugate (ng/mL).

plasma proteins = assay: as above; format: in vitro ADME; details: male, pooled plasma, pH 7.4, 15000 ng/mL, 37° C., 6 hours, read-out: mean percent protein binding (converted)
Text: as §1

[3] = F58 buffer pH 7.7, Test # 1 and 2, listed as ALT-801
[4] = 15000 ng/mL, 37° C., 6 hours, replicate, listed as ALT-801

With `CC[C@H](C)[C@H](NC(=O)[C@H](Cc1ccccc1)NC(=O)[C@H](CCC(=O)O)NC(=O)[C@@H]1CCCCNC(=O)CC[C@H](NC(=O)[C@H](CC(=O)O)NC(=O)[C@H](CC(C)C)NC(=O)[C@H](Cc2ccc(O)cc2)NC(=O)[C@H](CCCCN)NC(=O)[C@H](CO)NC(=O)[C@H](Cc2ccc(O)cc2)NC(=O)[C@H](CC(=O)O)NC(=O)[C@H](CO)NC(=O)[C@@H](NC(=O)[C@H](Cc2ccccc2)NC(=O)[C@@H](NC(=O)CNC(=O)[C@H](CCC(N)=O)NC(=O)C(C)(C)NC(=O)[C@@H](N)Cc2c[nH]cn2)[C@@H](C)O)[C@@H](C)O)C(=O)N[C@@H](CCCCNC(=O)[C@H]2O[C@@H](OCCCCCCCCCCCCCCCCCC(=O)O)[C@H](O)[C@@H](O)[C@@H]2O)C(=O)N[C@@H](C)C(=O)N[C@@H](C)C(=O)N1)C(=O)N[C@@H](CCC(N)=O)C(=O)N[C@@H](Cc1c[nH]c2ccccc12)C(=O)N[C@@H](CC(C)C)C(=O)N[C@@H](CC(C)C)C(=O)N[C@@H](CCC(N)=O)C(=O)N[C@H](C(N)=O)[C@@H](C)O` [SEQ ID NO: 1] the “PS-20 required per mg of ALT-801 to achieve the CMC” value ([1]; F58 buffer) was “at least 0.66 mg”, the “Polysorbate 20 CMC Value, 5.0 mg/ml ALT-801, Average” value ([1]; F58 buffer pH 7.7) was 4.01 mg/mL and the “Polysorbate 20 CMC Value, 10.0 mg/ml ALT-801, Average” value ([1]; F58 buffer pH 7.7) was 7.30 mg/mL. For the same compound, the “Polysorbate 20 CMC Value, 5.0 mg/ml ALT-801” value [1, 3] was 4.00 mg/mL and 4.02 mg/mL, the “Polysorbate 20 CMC Value, 10.0 mg/ml ALT-801” value [1, 3] was 7.30 mg/mL and 7.29 mg/mL and the weight loss (DIO JAX mice; 12 nmol/kg dose) was “more than 25%”. The fat loss (DIO JAX mice; FIG. 7) was 51%, the lean loss (DIO JAX mice; FIG. 7) was “about 12%” and the “glucose excursion in IPGTT (2 g/kg IP glucose)” value (DIO JAX mice; day 27, low and high dose) was “blunted glucose excursion”. The “blood glucose levels during repeated dosing” value (DIO JAX mice; high dose 12 nmol/kg SC every 2 days) was “suppressed to the normoglycemic range from day seven (7) through the last measurement at day 26”, the “time post-dose at which blood glucose reached the normoglycemic range” value (DIO JAX mice; low and high dose (6 and 12 nmol/kg) SC) was at most 4 h and the “Cmax as % of that of semaglutide” value ([2]; male mice, 10 nmol/kg SC) was 54%. For the same compound, the AUC(0-inf) ([2]; iv, 10 nmol/kg) was 1.53 µM·h, the AUC(0-t) ([2]; iv, 10 nmol/kg) was 1.5 µM·h and the Cmax ([2]; iv, 10 nmol/kg) was 79.5 nM. For the same compound, the Tmax ([2]; iv, 10 nmol/kg) was 8 h, the half-life ([2]; iv, 10 nmol/kg) was 14.7 h and the MRT ([2]; iv, 10 nmol/kg, male mice, 10 nmol/kg IV) was 14.8 h. It also gave an AUC(0-inf) ([2]; sc, 10 nmol/kg) of 0.695 µM·h, an AUC(0-t) ([2]; sc, 10 nmol/kg) of 0.687 µM·h and a Cmax ([2]; sc, 10 nmol/kg) of 23.7 nM. The Tmax ([2]; sc, 10 nmol/kg) was 8 h, the half-life ([2]; sc, 10 nmol/kg) was 15.4 h and the MRT ([2]; sc, 10 nmol/kg, male mice, 10 nmol/kg SC) was 22.2 h. The AUC(0-inf) ([2]; sc, 30 nmol/kg) was 1.95 µM·h, the AUC(0-t) ([2]; sc, 30 nmol/kg) was 1.93 µM·h and the Cmax ([2]; sc, 30 nmol/kg) was 76.9 nM. The Tmax ([2]; sc, 30 nmol/kg) was 8 h, the half-life ([2]; sc, 30 nmol/kg) was 10 h and the MRT ([2]; sc, 30 nmol/kg, male mice, 30 nmol/kg SC) was 18.3 h. The MRT ([2]; sc, 30 nmol/kg, male mice, 10 and 30 nmol/kg) was 18.3 to 22.2 h, the “Initial Conc, Mean” value (plasma proteins of human; 15000 ng/mL nominal) was 7610 ng/mL and the “Initial Conc, Rep” value (plasma proteins of human; 15000 ng/mL nominal, replicate, listed as ALT-801) was 7580 ng/mL and 7630 ng/mL and 7780 ng/mL. For the same compound, the “Percentage of ALT-801 Bound, Mean” value (plasma proteins of human; 15000 ng/mL, 37° C., 6 hours) was 99.8%, the “Percentage of ALT-801 Unbound, Mean” value (plasma proteins of human; 15000 ng/mL, 37° C., 6 hours) was 0.213% and the “Percentage of ALT-801 Bound” value (plasma proteins of human; [4]) was 99.9% and 99.7%. The “Percentage of ALT-801 Unbound” value (plasma proteins of human; [4]) was 0.117% and 0.309%, the “Ultracentrifugate, Mean” value (plasma proteins of human; 37° C., 6 hours) was 16.2 ng/mL and the “Ultracentrifugate, Rep” value (plasma proteins of human; 37° C., 6 hours, replicate, listed as ALT-801) was “BLQ and 8.87^b ng/mL and 23.5 ng/mL”. For the same compound, the “Percent of Theoretical” value (plasma proteins of human; initial conc vs 15000 ng/mL) was 50.7% and the fraction unbound at 6 h, 15000 ng/mL (plasma proteins) was 0.002.

Source: patent US20210290732A1, “GLP-1R and GCGR Agonists, Formulations, and Methods of Use” (Spitfire Pharma LLC, priority 2020, published 2021)
